We go through one compound from US20250325793A1, “INTRACALVARIOSSEOUS DRUG ADMINISTRATION DEVICE FOR DELIVERING DRUG BY BYPASSING BLOOD-BRAIN BARRIER” (GACHON UNIVERSITY OF INDUSTRY-ACADEMIC COOPERATION …, priority 2023, published 2025).

The data set in a line: Plasma, brain interstitial fluid (microdialysis) and whole-brain drug levels after intravenous (IV) and intracalvariosseous (ICO) administration. To be noted: rat, in vivo.

Consider `Cc1nc2n(c(=O)c1CCN1CCC(c3noc4cc(F)ccc34)CC1)CCCC2` [RIS, risperidone], for which the “Cbr (brain drug concentration), ICO administration group relative to IV administration group” value is 115.2 times and the “brain-to-plasma ratio (Kp), ICO administration group relative to IV administration group” value amounted to 36.3 times.
